Assay results: patent US8729279B2, “Agent for promoting osteoblast differentiation, pharmaceutical composition for promoting bone formation, and food for special dietary use containing auraptene analog as active ingredient” (Erina Co., Inc., priority 2010, dated 2014)

How the values were obtained:
MC3T3-E1 cells [1] = assay: Comparison with BMP-2 and effect of BMP signal inhibitors on ALP activity; assay type: cell-based, mouse; details: auraptene 30 μM or BMP-2 25 ng/ml, 6 days
Description: In addition, the activity of alkaline phosphatase (ALP), a marker enzyme of initial osteoblast differentiation, was measured by the following method. After incubation, the cells were fixed with cold methanol, and the dishes were dried. 100 μl of buffer of pH 8.5 containing 2 mM magnesium chloride and 100 mM Tris-HCl, with 6.7 mM p-nitrophenylphosphate as a substrate, was dispensed in each well and allowed to react at 37° C. for 30 minutes. Then, 100 μl of 0.1 N sodium hydroxide was added to terminate the reaction, followed by measurement with a plate reader of the absorbance at 405 nm, which was determined to be the ALP activity. The value was calculated by taking the control as 100. […]
BMP-2 and auraptene were added at 25 ng/ml and 30 μM, respectively. Upon the addition of the sample, the cells were cultured for 6 days in the presence or absence of 10 ng/ml Noggin, a BMP inhibitor, or 1 μM Dorsomorphin, an inhibitor of type I BMP receptor (ALK) (the above concentrations are the final concentrations), and the ALP activities were measured in the same manner as above. […]

MC3T3-E1 cells [2] = assay: Expression of genes related to osteoblast differentiation, real-time RT-PCR; assay type: cell-based, mouse; details: auraptene 30 μM or BMP-2 50 ng/ml, compared with control
Description: The effects on the expression of various genes related to osteoblast differentiation were analyzed using the real-time RT-PCR method.
MC3T3-E1 cells were plated in each well of a 6-well plate (Greiner) at a concentration of 1.5×10^5 cells/well and cultured in the same manner as above. After reaching confluent, the culture medium was replaced with the culture medium containing auraptene (30 μM) or BMP-2 (50 ng/ml) and cultured for 0 to 14 days. After incubation, the culture medium was removed and the cells were washed with PBS. Thereafter, “ISOGEN” (trade name, Wako Pure Chemical Industries, Ltd.) was added in an amount of 1 ml/well and the cells were collected. RNA purification was conducted according to the protocol described in the package insert of “ISOGEN”.
Reverse transcription was performed using “PrimeScript RT-PCR Kit” (trade name, TaKaRa) with 2 μg of purified RNA according to the protocol described in the package insert, thereby synthesizing the cDNA sample.
Real-time PCR was performed using “FastStart Universal SYBR Green Master (Rox)” (trade name, Roche) according to the protocol described in the package insert under the following conditions: incubation at 50° C. for 2 min and at 95° C. for 10 min, followed by 50 cycles of 15 sec at 95° C. and 1 min at 60° C. Data were analyzed with “ABI PRISM 7300 sequence detection system” (trade name, Applied Biosystems).
Primers used were as described in the following Table 2.
Data analysis was performed as follows using β-actin as an endogenous control gene by the comparative Ct method.
Δ Ct=(Ct of target gene)−(Ct of endogenous control gene)
ΔΔ Ct=(Δ Ct of target sample)−(Δ Ct of reference sample)
Relative expression level of target gene of target sample to that of reference sample=2 (^−ΔΔ^Ct)

B1: BMP-2: osteogenic factor (Bone morphogenetic protein 2), a cytokine known for potent bone formation promoting action; positive control (protein, UniProt P12643 283-396, looked up)
Bone morphogenetic protein 2: QAKHKQRKRLKSSCKRHPLYVDFSDVGWNDWIVAPPGYHAFYCHGECPFPLADHLNSTNHAIVQTLVNSVNSKIPKACCVPTELSAISMLYLDENEKVVLKNYQDMVVEGCGCR
effect of promoting ALP activity in presence of Dorsomorphin (MC3T3-E1 cells [1]; Dorsomorphin 1 μM): diminished
effect of promoting ALP activity in presence of Noggin (MC3T3-E1 cells [1]; Noggin 10 ng/ml): diminished
expression of ALP gene (MC3T3-E1 cells [2]; FIG. 5A): increased
expression of osteocalcin gene (MC3T3-E1 cells [2]; FIG. 5B): increased
expression of Runx 2 gene (MC3T3-E1 cells [2]; FIG. 5C): increased
expression of Osterix gene (MC3T3-E1 cells [2]; FIG. 5D): increased
